{"source": "patent US20240390496A1", "about": "“SINGLE-CHAIN AND MULTI-CHAIN SYNTHETIC ANTIGEN RECEPTORS FOR DIVERSE IMMUNE CELLS” (UNIVERSITY OF SOUTHERN CALIFORNIA, published 2024)", "biological_target": "T1, CD19 on RAJI, Nalm6 or RS4;11 cells (human, UniProt P15391 20-556)", "T1 sequence (looked up)": "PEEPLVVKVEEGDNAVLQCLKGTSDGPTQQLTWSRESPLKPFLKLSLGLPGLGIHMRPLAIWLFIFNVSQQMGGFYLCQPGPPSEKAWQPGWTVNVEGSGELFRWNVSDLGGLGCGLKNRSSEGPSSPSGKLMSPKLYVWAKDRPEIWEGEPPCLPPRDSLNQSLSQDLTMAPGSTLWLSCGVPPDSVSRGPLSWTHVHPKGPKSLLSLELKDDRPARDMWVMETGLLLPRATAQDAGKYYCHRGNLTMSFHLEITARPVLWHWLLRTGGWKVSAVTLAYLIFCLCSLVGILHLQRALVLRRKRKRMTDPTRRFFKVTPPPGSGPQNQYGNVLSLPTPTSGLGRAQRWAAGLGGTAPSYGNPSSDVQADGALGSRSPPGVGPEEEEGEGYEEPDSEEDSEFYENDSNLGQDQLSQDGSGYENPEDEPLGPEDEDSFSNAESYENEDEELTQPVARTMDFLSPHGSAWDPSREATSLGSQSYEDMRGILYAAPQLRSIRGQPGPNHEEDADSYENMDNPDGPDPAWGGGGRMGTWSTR", "experiment": "cell-based or functional assay"}
{"binder": " (receptor) DIQMTQSPSSLSASVGDRVTITCKASDHINNWLAWYQQKPGQAPKLLIYGATTLETGVPSRFSGSGSGTDYTLTISSLQPEDFATYYCQQSWNTPWTFGQGTKLEIKRLEKSVRFYLVVSPASASTQTSWTPRDLVSSQTQTQSCVPPTAGARQAPESPSTIPVPSQPQNSTLRPGPAAPIALVPVFCGLLVAKSLVLSALLVWWGDIWWKTMMELRSLDTQKATCHLQQVTDLPWTSVSSPVEREILYHTVARTKISDDDDEHTLRAKRSGSGATNFSLLKQAGDVEENPGPTSMDWIWRILFLVGAATGAHSFEQVQLQQPGAELVKPGASVKMSCKASGYAFSSYWINWMKQKPGQGLEWIGQIYPGDGDTNYNGKFKGRATLTADTSSSTAYMQLSSLTSEDSAVYFCARSITTVVGCAMDYWGQGTSVTVSSTRKSVRFYLVVSPASASTQTSWTPRDLVSSQTQTQSCVPPTAGARQAPESPSTIPVPSQPQNSTLRPGPAAPIALVPVFCGLLVAKSLVLSALLVWWGDIWWKTMMELRSLDTQKATCHLQQVTDLPWTSVSSPVEREILYHTVARTKISDDDDEHTLRAKRSGSGVKQTLNFDLLKLAGDVESNPGPSRGHMTEYKPTVRLATRDDVPRAVRTLAAAFADYPATRHTVDPDRHIERVTELQELFLTRVGLDIGKVWVADDGAAVAVWTTPESVEAGAVFAEIGPRMAELSGSRLAAQQQMEGLLAPHRPKEPAWFLATVGVSPDHQGKGLGSAVVLPGVEAAERAGVPAFLETSAPRNLPFYERLGFTVTADVEVPEGPRTWCMTRKPGA", "values": [{"measurement": "NFAT-GFP assay: JNG cells with the SAR co-cultured ~24 h with RAJI", "value": "0.4 + score"}]}
{"binder": " (receptor) DIQMTQSPSSLSASVGDRVTITCKASDHINNWLAWYQQKPGQAPKLLIYGATTLETGVPSRFSGSGSGTDYTLTISSLQPEDFATYYCQQSWNTPWTFGQGTKLEIKRLELWVSQPPEIRTLEGSSAFLPCSFNASQGRLAIGSVTWFRDEVVPGKEVRNGTPEFRGRLAPLASSRFLHDHQAELHIRDVRGHDASIYVCRVEVLGLGVGTGNGTRLVVEKEHPQLGAGTVLLLRAGFYAVSFLSVAVGSTVYYQGKCLTWKGPRRQLPAVVPAPLPPPCGSSAHLLPPVPGGRAKRSGSGATNFSLLKQAGDVEENPGPTSMDWIWRILFLVGAATGAHSFEQVQLQQPGAELVKPGASVKMSCKASGYAFSSYWINWMKQKPGQGLEWIGQIYPGDGDTNYNGKFKGRATLTADTSSSTAYMQLSSLTSEDSAVYFCARSITTVVGCAMDYWGQGTSVTVSSTRGDIENTSLAPEDPTFPADTWGTYLLTTETGLQKDHALWDHTAQNLLRMGLAFLVLVALVWFLVEDWLSRKRTRERASRASTWEGRRRLNTQTLRAKRSGSGVKQTLNFDLLKLAGDVESNPGPSRGHMTEYKPTVRLATRDDVPRAVRTLAAAFADYPATRHTVDPDRHIERVTELQELFLTRVGLDIGKVWVADDGAAVAVWTTPESVEAGAVFAEIGPRMAELSGSRLAAQQQMEGLLAPHRPKEPAWFLATVGVSPDHQGKGLGSAVVLPGVEAAERAGVPAFLETSAPRNLPFYERLGFTVTADVEVPEGPRTWCMTRKPGA", "values": [{"measurement": "NFAT-GFP assay: JNG cells with the SAR co-cultured ~24 h with RAJI", "value": "0.8 + score"}]}
{"binder": " (receptor) DIQMTQSPSSLSASVGDRVTITCKASDHINNWLAWYQQKPGQAPKLLIYGATTLETGVPSRFSGSGSGTDYTLTISSLQPEDFATYYCQQSWNTPWTFGQGTKLEIKRLEQSKAQVLQSVAGQTLTVRCQYPPTGSLYEKKGWCKEASALVCIRLVTSSKPRTMAWTSRFTIWDDPDAGFFTVTMTDLREEDSGHYWCRIYRPSDNSVSKSVRFYLVVSPASASTQTSWTPRDLVSSQTQTQSCVPPTAGARQAPESPSTIPVPSQPQNSTLRPGPAAPIALVPVFCGLLVAKSLVLSALLVWWGDIWWKTMMELRSLDTQKATCHLQQVTDLPWTSVSSPVEREILYHTVARTKISDDDDEHTLRAKRSGSGATNFSLLKQAGDVEENPGPTSMDWIWRILFLVGAATGAHSFEQVQLQQPGAELVKPGASVKMSCKASGYAFSSYWINWMKQKPGQGLEWIGQIYPGDGDTNYNGKFKGRATLTADTSSSTAYMQLSSLTSEDSAVYFCARSITTVVGCAMDYWGQGTSVTVSSTRGDIENTSLAPEDPTFPADTWGTYLLTTETGLQKDHALWDHTAQNLLRMGLAFLVLVALVWFLVEDWLSRKRTRERASRASTWEGRRRLNTQTLRAKRSGSGVKQTLNFDLLKLAGDVESNPGPSRGHMTEYKPTVRLATRDDVPRAVRTLAAAFADYPATRHTVDPDRHIERVTELQELFLTRVGLDIGKVWVADDGAAVAVWTTPESVEAGAVFAEIGPRMAELSGSRLAAQQQMEGLLAPHRPKEPAWFLATVGVSPDHQGKGLGSAVVLPGVEAAERAGVPAFLETSAPRNLPFYERLGFTVTADVEVPEGPRTWCMTRKPGA", "values": [{"measurement": "NFAT-GFP assay: JNG cells with the SAR co-cultured ~24 h with RAJI", "value": "0.5 + score"}]}
{"binder": " (receptor) DIQMTQSPSSLSASVGDRVTITCKASDHINNWLAWYQQKPGQAPKLLIYGATTLETGVPSRFSGSGSGTDYTLTISSLQPEDFATYYCQQSWNTPWTFGQGTKLEIKRLEGQPKANPTVTLFPPSSEELQANKATLVCLISDFYPGAVTVAWKADGSPVKAGVETTKPSKQSNNKYAASSYLSLTPEQWKSHRSYSCQVTHEGSTVEKTVAPTECSGTLPIQVEQNFLSNLFVASWIAVMIIFRIGMAVAIFCCFFFPSANERCKSKVVPCRQKQWRTSFDSKKLDLNYNHFESMEWSHRSRRGRIWGRAKRSGSGATNFSLLKQAGDVEENPGPTSMDWIWRILFLVGAATGAHSFEQVQLQQPGAELVKPGASVKMSCKASGYAFSSYWINWMKQKPGQGLEWIGQIYPGDGDTNYNGKFKGRATLTADTSSSTAYMQLSSLTSEDSAVYFCARSITTVVGCAMDYWGQGTSVTVSSTRGDIENTSLAPEDPTFPADTWGTYLLTTETGLQKDHALWDHTAQNLLRMGLAFLVLVALVWFLVEDWLSRKRTRERASRASTWEGRRRLNTQTLRAKRSGSGVKQTLNFDLLKLAGDVESNPGPSRGHMTEYKPTVRLATRDDVPRAVRTLAAAFADYPATRHTVDPDRHIERVTELQELFLTRVGLDIGKVWVADDGAAVAVWTTPESVEAGAVFAEIGPRMAELSGSRLAAQQQMEGLLAPHRPKEPAWFLATVGVSPDHQGKGLGSAVVLPGVEAAERAGVPAFLETSAPRNLPFYERLGFTVTADVEVPEGPRTWCMTRKPGA", "values": [{"measurement": "NFAT-GFP assay: JNG cells with the SAR co-cultured ~24 h with RAJI", "value": "0.6 + score"}]}
{"binder": " (receptor) DIQMTQSPSSLSASVGDRVTITCKASDHINNWLAWYQQKPGQAPKLLIYGATTLETGVPSRFSGSGSGTDYTLTISSLQPEDFATYYCQQSWNTPWTFGQGTKLEIKRLELWVSQPPEIRTLEGSSAFLPCSFNASQGRLAIGSVTWFRDEVVPGKEVRNGTPEFRGRLAPLASSRFLHDHQAELHIRDVRGHDASIYVCRVEVLGLGVGTGNGTRLVVEKEHPQLGAGTVLLLRAGFYAVSFLSVAVGSTVYYQGKCLTWKGPRRQLPAVVPAPLPPPCGSSAHLLPPVPGGRAKRSGSGATNFSLLKQAGDVEENPGPTSMDWIWRILFLVGAATGAHSFEQVQLQQPGAELVKPGASVKMSCKASGYAFSSYWINWMKQKPGQGLEWIGQIYPGDGDTNYNGKFKGRATLTADTSSSTAYMQLSSLTSEDSAVYFCARSITTVVGCAMDYWGQGTSVTVSSTRLWVSQPPEIRTLEGSSAFLPCSFNASQGRLAIGSVTWFRDEVVPGKEVRNGTPEFRGRLAPLASSRFLHDHQAELHIRDVRGHDASIYVCRVEVLGLGVGTGNGTRLVVEKEHPQLGAGTVLLLRAGFYAVSFLSVAVGSTVYYQGKCLTWKGPRRQLPAVVPAPLPPPCGSSAHLLPPVPGGRAKRSGSGVKQTLNFDLLKLAGDVESNPGPSRGHMTEYKPTVRLATRDDVPRAVRTLAAAFADYPATRHTVDPDRHIERVTELQELFLTRVGLDIGKVWVADDGAAVAVWTTPESVEAGAVFAEIGPRMAELSGSRLAAQQQMEGLLAPHRPKEPAWFLATVGVSPDHQGKGLGSAVVLPGVEAAERAGVPAFLETSAPRNLPFYERLGFTVTADVEVPEGPRTWCMTRKPGA", "values": [{"measurement": "NFAT-GFP assay: JNG cells with the SAR co-cultured ~24 h with RAJI", "value": "0.3 + score"}]}
